Data from PMC4109916.

Chains of the proteins cited; added tags and fusions are not shown. A line that says so, or that is headed by a name, gives the form on record, which may keep a tag or linker.
Human IgG1 (Avastin, bevacizumab) (human), heavy, as listed by the source, chain 1 of 2: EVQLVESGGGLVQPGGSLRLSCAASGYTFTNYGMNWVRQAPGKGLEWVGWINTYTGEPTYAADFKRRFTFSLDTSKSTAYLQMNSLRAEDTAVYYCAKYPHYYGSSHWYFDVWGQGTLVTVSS
Human IgG1 (Avastin, bevacizumab) (human), light, as listed by the source, chain 2 of 2: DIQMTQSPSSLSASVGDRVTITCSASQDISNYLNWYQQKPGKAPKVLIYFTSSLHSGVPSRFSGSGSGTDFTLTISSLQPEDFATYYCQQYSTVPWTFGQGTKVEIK

What was measured:
[1] = biological target: Human IgG1 (Avastin, bevacizumab) (human); experiment: SPR; pH 7.4
[2] = biological target: Human IgG1 (Avastin, bevacizumab) (human); experiment: SPR; pH 6

Substance: Recombinant Protein A (SpA) (from UniProt P38507 37-477) (natural protein)
- Kd [1]: 2 nM
- koff [1]: 0.023 s⁻¹
- kon [1]: 130000 M⁻¹ s⁻¹
- Kd [2]: 16 nM
- koff [2]: 0.0012 s⁻¹
- kon [2]: 80000 M⁻¹ s⁻¹
